Values quoted from earlier work in patent US20230046278A1, “METHOD FOR COLOURING KERATIN MATERIAL, COMPRISING THE USE OF AN ORGANIC C1-C6 ALKOXYSILANE AND TWO STRUCTURALLY DIFFERENT CELLULOSE TYPES” (Henkel AG & Co. KGaA, priority 2019, published 2023).

Conditions: 25° C.

## 3,4,5,6-tetrachloro-2-(1,4,5,8-tetrabromo-6-hydroxy-3-oxoxanthen-9-yl)benzoic acid [Acid Red 92]
  solubility in water: greater than 10 g/L
